In one test the target is T1, YTH^YTHDC1 (Homo sapiens, UniProt Q96MU7).
T1 construct: YTHDC1 (amino acids 345-509); His-tag (N); made in house; host or cells: E. coli BL21(DE3)
The test can be described thus: FP competition assay, YTH domain of YTHDC1 and FAM-m6A-RNA. It counts as binding. As to conditions: 25 nM FAM-m^6A-RNA; read-out: IC50, FP competition assay against YTH^YTHDC1. An excerpt: The m^6A nucleoside was ordered from AmBeed. […] 6-(methylamino) purine was purchased from Fisher Scientific.

Chains of the proteins cited; added tags and fusions are not shown. Residues count along the entry.
UniProt Q9H6S0, 1285-1424: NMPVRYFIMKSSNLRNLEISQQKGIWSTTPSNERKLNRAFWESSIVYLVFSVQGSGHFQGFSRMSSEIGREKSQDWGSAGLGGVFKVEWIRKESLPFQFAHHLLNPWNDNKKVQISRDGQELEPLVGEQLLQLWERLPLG

A further test has as its target YTH^YTHDC2 (Homo sapiens, UniProt Q9H6S0). To be noted: read-out: IC50, FP competition assay against YTH^YTHDC2; 25 nM FAM-m^6A-RNA.
The subject of test [1] is YTH^YTHDF1, YTH^YTHDF2, YTH^YTHDF3, YTH^YTHDC1, YTH^YTHDC2. In words: Thermal shift assay, five YTH domain proteins. As to conditions: 6 μM compound, 4 μM protein, five YTH domains. The test is classed as binding, human. The protocol: For the positive control, we incubated […] or 16 μM m^6A-RNA with 4 μM YTH^YTHDF1 in the binding buffer with added RNase inhibitor and 5×SYPRO orange dye (Invitrogen) at room temperature for 15 minutes. After incubation, the thermal shift assay was performed in the QuantStudio™ 3 Real-Time PCR System (Thermo Fisher). Each sample was heated from 25° C. to 75° C. ramping by 0.2° C./second; meanwhile, fluorescence intensities were recorded every 0.3° C. with the excitation and emission wavelengths at 470 nm and 570 nm, respectively. Data were first normalized by setting the highest and lowest fluorescence intensities in each melting run to 100% and 0%, respectively. […]
To assess whether N-7 interacted with the YTH domain proteins, we used the thermal shift assay to examine if there were any stabilization effects of the YTH domains by adding N-7. […] For each YTH domain protein, three biological replicates were performed to quantify the errors of the assay. The thermal stabilizations of the YTH domain proteins were analyzed by the change of the Tm (ΔTm) as the difference between the Tm measured on the protein with N-7 or DMSO, and the Tm of protein-only control (FIG. 4B and FIGS. 18A-18E). The interactions between D-6 and YTH domain proteins were assessed using the same method as N-7 (FIGS. 19A-19F).

The values below come from US20250144104A1, “DISCOVERY OF A NEW INHIBITOR FOR THE YTH DOMAIN-CONTAINING M6A RNA READERS” (The Trustees of Boston College, priority 2023, published 2025).

Usually IC50 stands for the concentration that inhibits the measured activity by half. In the case of `O=C1CC2(CCN(c3ncnc4c3ncn4C3CC(CO)(CO)C3)C2)CN1` (stereo not drawn) [N-7], the IC50 on YTH^YTHDC1 worked out at 48 ± 11 µM; on YTH^YTHDC2 it was 30 ± 7 µM. The “increase of melting temperatures of the YTH domain proteins relative to the DMSO control” value in test [1] is 0.4-0.8 °C.
